The data set can be described thus: Stability of Pattern C under vacuum drying. To be noted: vacuum drying condition of 50° C. for 18 h.

Each structure is given as a SMILES string.

As for `Cc1c(-c2ccc(-c3ccccc3F)cc2)nc2ccc(F)cc2c1C(=O)[O-].[Na+]` [Pattern C, 6-Flouro-2-(2′-fluoro-1,1′-biphenyl-4-yl)-3-methyl-4-quinolinecarboxylic acid sodium salt], the “Polymorphic form after vacuum drying” value was “remains the same”.

Values taken from patent US12076315B2 (Clear Creek Bio, Inc., priority 2020, dated 2024).
